The text below walks through data of ChEMBL document CHEMBL1681689, “Discovery of N-methyl-1-(1-phenylcyclohexyl)ethanamine, a novel triple serotonin, norepinephrine and dopamine reuptake inhibitor” (Bioorg Med Chem Lett, 2011).

Chains of the proteins cited; added tags and fusions are not shown.
UniProt Q01959, whole entry: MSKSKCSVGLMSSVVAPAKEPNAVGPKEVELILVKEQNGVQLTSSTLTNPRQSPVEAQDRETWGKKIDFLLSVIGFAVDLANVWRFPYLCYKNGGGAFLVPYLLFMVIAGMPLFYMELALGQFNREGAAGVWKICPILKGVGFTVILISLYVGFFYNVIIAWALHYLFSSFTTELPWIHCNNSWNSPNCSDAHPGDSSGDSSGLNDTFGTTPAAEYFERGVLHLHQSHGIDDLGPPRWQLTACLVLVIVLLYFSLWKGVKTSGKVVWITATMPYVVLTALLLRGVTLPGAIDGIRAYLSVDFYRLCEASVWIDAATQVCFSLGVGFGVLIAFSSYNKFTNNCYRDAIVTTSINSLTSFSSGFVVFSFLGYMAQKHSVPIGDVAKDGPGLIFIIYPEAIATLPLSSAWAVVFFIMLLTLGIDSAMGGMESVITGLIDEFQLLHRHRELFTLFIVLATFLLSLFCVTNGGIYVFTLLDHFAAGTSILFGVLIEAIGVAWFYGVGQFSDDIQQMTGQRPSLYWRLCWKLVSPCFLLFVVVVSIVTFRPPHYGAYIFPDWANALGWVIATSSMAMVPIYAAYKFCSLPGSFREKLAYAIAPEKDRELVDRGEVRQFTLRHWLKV

The assay concerns the target Sodium-dependent dopamine transporter (Homo sapiens, UniProt Q01959). The assay is classed as cell-based, COS-7.

As usually defined, the IC50 is the concentration needed to halve the response being measured. A low value points to greater potency in that assay.

`CC(N)C1(c2cccc3ccccc23)CCCCC1` (stereo unspecified): the IC50 worked out at 4 µM.
